Experimental data from publication PMC12658643, “Effects of Ligand N and O Donor Content on the Structure, Aqueous Stability, and SOD Activity of a Series of Mn^2+ Complexes with Pyridine-Containing Tripodal Ligands” (ACS Omega, 2025).

Legend:
[1] = Potentiometric titration of the acidified ligands (protonation constants); details: I = 0.10 M KCl
[2] = Potentiometric titration of the ligands in the presence of MnCl2 (stability of [MnL]^2+ complex, speciation); details: conditions of the titration
Description: Titrations were performed using a Thermo Scientific OrionStar T910 automatic titrator equipped with a Ross Orion 8102BNUWP pH electrode. Electrode calibration was performed prior to each experiment using the GLEE method. The electrode standard potential and slope were used to convert millivolt readings from each titration into pH values. An air-sealed, jacketed titration vessel was employed, equipped with ports for titrant addition, nitrogen gas, and the pH probe. Temperature was maintained at 25.0 ± 0.1 °C with a temperature-controlled, circulating water bath. […]
Reagent stock solutions were prepared in DI H2O (18 MΩ cm^–1). […] The concentration of MnCl2(aq) stock (0.1043 M) was determined by titration with commercially standardized ethylenediaminetetraacetic acid (EDTA) using Eriochrome black T indicator. […] The NaOH stock concentrations of either 0.0100 or 0.0500 M were determined by titrating them in triplicate against the standardized HCl solution.
The quantities of ligand, HCl, and MnCl2, and concentrations of KCl and NaOH titrant used for each experiment are given in the Supporting Information (Table S34). These quantities were chosen to produce optimum titration curves for the analysis of Mn^2+ complex of each ligand. For a typical experiment, the appropriate quantities of ligand and HCl were added to the titration vessel along with enough DI H2O to give 40 mL of solution. […]

With `OCCN(CCO)CCO` the “Log βLH1 (protonation constant of the ligand)” value ([1]; t = 25 °C) was 7.783(4), the “Log Ka1” value ([1]; Table S35, t = 25°C) was 7.783(4) and the “Mn^2+ complex formation in aqueous solution” value [2] was “does not form stable Mn^2+ complexes in aqueous solution”.

Some compounds may have been tested in ways that are not shown here.
